IC50 and EC50 data for two molecules are collected here from ChEMBL document CHEMBL1132115, “Discovery of the first potent and selective small molecule opioid receptor-like (ORL1) antagonist: 1-[(3R,4R)-1-cyclooctylmethyl-3- hydroxymethyl-4-piperidyl]-3-ethyl-1, 3-dihydro-2H-benzimidazol-2-one (J-113397)” (1999).

The target of assay [1] is Delta-type opioid receptor (Homo sapiens, UniProt P41143). Kind of assay: Binding affinity in CHO cells stably expressing cloned human Opioid receptor delta 1 by displacing radioligand [3H][D-Ala2,D-Leu5]enkephalin.
Assay [2] concerns the target T1, Nociceptin receptor (Homo sapiens, UniProt P41146). Kind of assay: Binding affinity in CHO cells stably expressing cloned human Opioid receptor like 1 by displacing radioligand [125I]Tyr14-nociceptin.
Another assay deals with Mu-type opioid receptor (Homo sapiens, UniProt P35372). Kind of assay: Binding affinity in CHO cells stably expressing cloned human Opioid receptor mu 1 by displacing diprenorphine.
For assay [3], the target named is Kappa-type opioid receptor (Homo sapiens, UniProt P41145). Description: Binding affinity in CHO cells stably expressing cloned human Opioid receptor kappa 1 by displacing radioligand [3H]U-69593.
For assay [4], the target named is T1, Nociceptin receptor. Description: Agonistic activity against nociceptin produced GTPgammaS binding to Opioid receptor like 1 expressed in CHO cells.
In assay [5] the target is T1, Nociceptin receptor. Description: Antagonistic activity against nociceptin produced [35S]GTP-gamma-S, binding to Opioid receptor like 1 expressed in CHO cells.

On to `CCn1c(=O)n([C@H]2CCN(CC3CCCCCCC3)C[C@@H]2CO)c2ccccc21`, for which the IC50 in assay [1] was more than 10000 nM; at Nociceptin receptor [2] it was 820 nM; on Mu-type opioid receptor it was 3300 nM; in assay [3] it was 2600 nM; on Nociceptin receptor [5] it was more than 10000 nM. Besides, the EC50 at Nociceptin receptor [4] is more than 10000 nM.

In the case of `CCn1c(=O)n([C@@H]2CCN(CC3CCCCCCC3)C[C@H]2CO)c2ccccc21`, the IC50 is more than 10000 nM in assay [1]; 2.3 nM on Nociceptin receptor [2]; 2200 nM at Mu-type opioid receptor; 1400 nM in assay [3]; 5.6 nM on Nociceptin receptor [5]. The molecule further showed an EC50 at Nociceptin receptor [4] of more than 10000 nM.
